Results as given in patent publication US20150089682A1, “ALS Inhibitor Herbicide Tolerant B. Napus Mutants” (priority 2012, published 2015).

The chains behind the UniProt entries cited, without tags or fusion partners. Residues count along the entry.
UniProt P17597, 56-670 E575Q/S653N: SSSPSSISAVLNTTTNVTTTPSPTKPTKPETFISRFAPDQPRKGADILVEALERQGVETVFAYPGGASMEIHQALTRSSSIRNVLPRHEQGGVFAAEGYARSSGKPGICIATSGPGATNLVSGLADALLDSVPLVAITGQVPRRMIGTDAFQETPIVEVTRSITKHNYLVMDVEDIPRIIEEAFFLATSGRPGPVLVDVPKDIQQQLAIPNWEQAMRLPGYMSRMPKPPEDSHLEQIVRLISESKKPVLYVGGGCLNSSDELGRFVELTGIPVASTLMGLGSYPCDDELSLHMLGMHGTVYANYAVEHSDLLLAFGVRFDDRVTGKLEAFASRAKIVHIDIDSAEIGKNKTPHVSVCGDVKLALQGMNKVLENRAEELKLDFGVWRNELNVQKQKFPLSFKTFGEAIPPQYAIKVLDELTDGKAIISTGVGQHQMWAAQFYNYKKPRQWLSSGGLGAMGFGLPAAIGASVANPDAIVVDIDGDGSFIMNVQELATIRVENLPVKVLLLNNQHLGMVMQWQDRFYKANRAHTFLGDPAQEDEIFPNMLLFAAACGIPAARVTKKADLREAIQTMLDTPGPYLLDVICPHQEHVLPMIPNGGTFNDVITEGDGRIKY

Target: Arabidopsis thaliana S653N-mutant ALS (Arabidopsis thaliana, UniProt P17597, E575Q/S653N)
Details: relative to WT; from measured pI50

COC(=O)c1ccc(C(F)(F)F)nc1S(=O)(=O)NC(=O)Nc1nc(OC)cc(OC)n1 [Flupyrsulfuron-methyl, flupyrsulfuron-methyl-sodium]
Resistance Factor S653N: 3
